For this data set the following is noted: 10% Solutol HS15 solution in PBS, shaking at 37 °C for 6 hours.

From publication PMC3395807 (Journal of Medicinal Chemistry, 2012) come the findings set out here.

Each structure is given as a SMILES string.

As to `OC[C@@H]1[C@@H](O)[C@H](O)[C@@H](O)CN1CCCCCCOc1cc(F)ccc1F` [Compound 3l, (2R,3R,4R,5S)-1-(6-(2,5-Difluorophenoxy)hexyl)-2-(hydroxymethyl)piperidine-3,4,5-triol], the “concentration of clear solution” value amounted to 20000 µM.
